Assay results reported in article doi:10.1101/2022.04.15.488344v1 (biorxiv, 2022).
Read-outs that look alike come from different tables or passages of the source.

Protein sequences, listed by entry. Tags and fused reporters are not part of them.
UniProt P03372, whole entry: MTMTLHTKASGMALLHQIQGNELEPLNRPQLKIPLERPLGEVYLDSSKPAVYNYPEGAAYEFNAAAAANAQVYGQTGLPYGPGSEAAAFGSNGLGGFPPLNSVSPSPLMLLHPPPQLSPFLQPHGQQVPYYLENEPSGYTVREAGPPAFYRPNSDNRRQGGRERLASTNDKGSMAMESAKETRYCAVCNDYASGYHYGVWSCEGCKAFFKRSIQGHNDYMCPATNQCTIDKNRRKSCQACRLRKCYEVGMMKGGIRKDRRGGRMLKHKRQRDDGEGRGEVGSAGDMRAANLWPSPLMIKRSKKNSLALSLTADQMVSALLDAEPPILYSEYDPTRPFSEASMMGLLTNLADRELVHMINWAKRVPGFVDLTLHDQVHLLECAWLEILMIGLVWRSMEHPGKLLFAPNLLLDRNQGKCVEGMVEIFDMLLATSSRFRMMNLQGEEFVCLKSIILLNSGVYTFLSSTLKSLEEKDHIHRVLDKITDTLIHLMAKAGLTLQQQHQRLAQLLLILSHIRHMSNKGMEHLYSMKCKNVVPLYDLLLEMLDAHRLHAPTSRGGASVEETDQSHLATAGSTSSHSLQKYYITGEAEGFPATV

Biological target: ERα-VP16 (VP16-ERα) (Homo sapiens, UniProt P03372)
Format: cell-based
Settings: […] h, αII peptide recruitment

Row | SMILES | EC50 [µM] | EC50 (commercial library sample) [µM]
1 | CC(C)c1csc2nc(Cl)nc(NCc3ccc(O)cc3)c12 [2c, 4-(((2-chloro-5-isopropylthieno[2,3-d]pyrimidin-4-yl)amino)methyl)phenol] | 6.2 | –
2 | Oc1cccc(CNc2nc(Cl)nc3scc(-c4ccccc4)c23)c1 [5d, 3-(((2-chloro-5-phenylthieno[2,3-d]pyrimidin-4-yl)amino)methyl)phenol] | 7.79 | –
3 | Cc1nc(NCc2ccc(O)cc2)c2c(CC(C)C)csc2n1 [compound 1, thieno[2,3-d]pyrimidine 1] | – | 0.18
